This test has as its target PHD2 (Homo sapiens, UniProt Q9GZT9). The settings on record: read-out: Km for 2-OG, PHD2; 1 μM peptide, 1 mM ascorbic acid, 5 nM enzyme.

By UniProt entry, the sequences of proteins in these tests, tags left out. Residues count along the entry.
UniProt Q9GZT9, 180-417: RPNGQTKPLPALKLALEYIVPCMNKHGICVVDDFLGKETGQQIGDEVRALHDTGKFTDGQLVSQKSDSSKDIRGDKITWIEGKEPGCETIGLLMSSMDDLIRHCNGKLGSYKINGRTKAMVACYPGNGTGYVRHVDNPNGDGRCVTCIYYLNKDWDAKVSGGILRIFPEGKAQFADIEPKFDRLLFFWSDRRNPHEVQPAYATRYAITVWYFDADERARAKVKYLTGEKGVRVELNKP

As usually defined, the Km is the concentration of substrate that gives half-maximal velocity.

`O=C(O)CCC(=O)C(=O)O` [Compound 2-OG, 2-oxoglutarate]: the Km was determined as 0.98 µM.

These data come from PMC6434079, “Time-dependent inhibition of PHD2” (Bioscience Reports, 2017).
